{
  "sequences": {"note": "Chains of the proteins cited; added tags and fusions are not shown.", "UniProt P25099, whole entry": "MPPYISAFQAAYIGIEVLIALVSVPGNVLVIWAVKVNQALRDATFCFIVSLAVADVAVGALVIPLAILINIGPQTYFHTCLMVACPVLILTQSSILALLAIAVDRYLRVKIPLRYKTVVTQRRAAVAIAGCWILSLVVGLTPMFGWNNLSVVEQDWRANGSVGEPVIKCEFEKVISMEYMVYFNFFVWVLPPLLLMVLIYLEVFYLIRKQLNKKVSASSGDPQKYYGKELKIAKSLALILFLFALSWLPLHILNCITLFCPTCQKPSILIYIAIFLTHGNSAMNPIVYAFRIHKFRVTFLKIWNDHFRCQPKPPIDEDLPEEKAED"},
  "source": "patent US10479814B2",
  "about": "“Adenosine receptor activation reagent and the uses of thereof” (Zhejiang Subtropical Crops Research Institute, priority 2014, dated 2019)",
  "target": "T1, rat cerebral cortex adenosine A1 receptor (Rattus norvegicus, UniProt P25099)",
  "T1 construct": "DPCPX; from tissue; host or cells: Wistar rat cerebral cortex",
  "experiment": "adenosine A1 receptor ligand binding test ([3H]DPCPX)",
  "conditions": "saturation curve, Scatchard",
  "note": "“And” between values parts separate entries of the source, which are not always exact repeats. Equal entries are not always repeated.",
  "data": [
    {"smiles": "[3H]CCC([3H])n1c(=O)c2[nH]c(C3CCCC3)nc2n(C([3H])CC[3H])c1=O", "note": "(stereo not shown) [[^3H]-DPCPX, reference compound]", "values": [
      {"measurement": "Bmax of A1 binding", "value": "2140 fmol/mg and 2290 fmol/mg"}
    ]}
  ]
}
